Antibody variant affinities, Ab-14 heavy chain, assay B

Data: MIT Lincoln Laboratory AlphaSeq set, Li et al. 2023, doi:10.1038/s41467-023-39022-2, as distributed in FLAb.

Antigen: PDVDLGDISGINAS, a 14-residue peptide of the SARS-CoV-2 spike HR2 region.

The variants keep the light chain, the linker and the frameworks of Ab-14 (scFv order VH, three GGGGS repeats, VL).
VH: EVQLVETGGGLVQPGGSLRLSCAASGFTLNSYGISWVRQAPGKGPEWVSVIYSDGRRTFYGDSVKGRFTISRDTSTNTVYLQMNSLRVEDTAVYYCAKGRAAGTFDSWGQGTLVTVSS
VL: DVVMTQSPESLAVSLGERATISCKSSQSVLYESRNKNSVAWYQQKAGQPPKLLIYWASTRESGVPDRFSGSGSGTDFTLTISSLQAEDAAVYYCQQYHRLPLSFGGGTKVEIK

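Phage display of a naive human antibody library on the peptide gave the parent. These sequences belong to a second round, designed from the earlier measurements on random variants of the parent. Several design methods are mixed in this list. AlphaSeq pools MATa yeast showing the antibodies with MATalpha yeast showing the peptide. The frequency of each diploid, read from paired DNA barcodes, reflects how well the two displayed proteins bind. Read counts were normalised to the haploid input and turned into Kd by a linear fit to BCL2-family pairs of known affinity, for each replicate. Each pool was mated in six replicate cultures.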

Variants are written as CDR1, CDR2 and CDR3 of the heavy chain (limits as in the source). Parent: GFTLNSYGIS, VIYSDGRRTFYGDSVK, GRAAGTFDS.
Scale: log10 of Kd in nM, estimated from mating counts; low values are strong binders.
Replicates are averaged; those with no signal do not enter the mean.
Where no diploid with the target was found in that replicate, the entry reads "n.d.": below detection, most likely a poor binder, though not proof of it.
Of ten entries with the parent sequence, four were seen in most replicates (averages 0.34 to 2.37), three in one and three in none, so single entries are noisy.
In the paper, a design with two or fewer of six values counts as a poor binder.
A sequence measured in both rounds can read differently, since the two assays cover different ranges.
Nonspecific signal, from three strains lacking the peptide, appeared in 1% of pairings of all heavy chain designs, centred on 2.08 (5% of these signals below 0.84); values are not corrected for it.

| CDR-H1 | CDR-H2 | CDR-H3 | replicates, log10 nM | mean log10 Kd (nM) |
|---|---|---|---|---|
| GFDLNEYGIS | VIYADGKRTVYADSVK | GTNAGTFDV | -0.31 / -0.34 / -0.30 / -0.47 / -0.59 / -0.30 | -0.39 |
| GFTLNWYGIS | VIYSDGRRTFYDDSVK | GRAAGTGDS | n.d. / n.d. / n.d. / n.d. / n.d. / n.d. | n.d. |
| GFVLDEYGIS | VIYADGMRTVYAEDFK | GQTAGNFHH | n.d. / n.d. / n.d. / n.d. / n.d. / n.d. | n.d. |
| GFDLNEYGIS | VIYADGMRTFYADSVK | GQVAGTFDQ | -0.21 / -0.08 / -0.59 / -0.48 / -0.49 / -0.16 | -0.33 |
| GFTLRQYGIS | VIYSDGRREFYSDSVK | GRAAGTFDS | n.d. / n.d. / 1.74 / 2.02 / 1.86 / n.d. | 1.87 |
| GFTLNEYGIS | VIYSDGRRTFYGDSVK | GRAAFTFDQ | n.d. / n.d. / n.d. / n.d. / n.d. / n.d. | n.d. |
| GFNLNEYGIS | VIYADGRRTAYADSVK | GEHAGSFDI | 0.13 / -0.28 / 0.00 / -0.25 / -0.44 / 0.10 | -0.12 |
| GFNLNSYGIS | VIYSDGRRTFYGDSVK | GHAAGTFDS | n.d. / n.d. / n.d. / n.d. / n.d. / n.d. | n.d. |
| GFTLDSYHIS | VIYSDGRRTFYGDSVK | GRAAGTALP | n.d. / n.d. / n.d. / n.d. / n.d. / n.d. | n.d. |
| GFELNEYGIS | VIYSDGRRTFYEDDVK | GRTAGTFDS | 0.79 / 0.57 / 0.20 / 0.29 / 0.49 / 0.78 | 0.52 |
| GFDLDEYGIS | VIYADGRRTAYADSVK | GNTAGTFDI | -0.48 / -0.65 / -0.54 / -0.69 / -0.39 / -0.52 | -0.55 |
| GFTLNSYGIS | VIYSDGLRTFYGDSVK | GKTAGTFDS | n.d. / 1.53 / 3.95 / n.d. / n.d. / 2.77 | 2.75 |
| GFDLDEYGIS | VIYADGLRTAYADSVK | GNVAGTFDL | 0.20 / -0.18 / -0.20 / -0.02 / 0.08 / 0.11 | 0.00 |
| GFTLNSYGIS | VIYSDGRRTFYKDSVK | GYAAGKFES | n.d. / n.d. / n.d. / n.d. / n.d. / n.d. | n.d. |
| GESLDEFGIS | VIYADGMRTAYTDSVK | GLVAATFVD | n.d. / n.d. / n.d. / n.d. / n.d. / n.d. | n.d. |
| GFTLNSYGIS | VIYSDGRRTFYGDAVK | GRTAGTFDS | n.d. / 0.36 / 1.12 / 1.49 / 1.14 / 1.71 | 1.16 |
| GFTLNSYGIS | VIYSDGRRTFYGDSVK | GRAAGTFDA | 0.60 / 1.79 / 0.87 / 1.05 / 1.13 / 1.23 | 1.11 |
| GFTLNQYGIS | VIYSDGMRTFYIDSVK | GRAAGTFDS | n.d. / n.d. / 0.74 / 0.62 / 2.26 / n.d. | 1.21 |
| GFSLNSYGIS | VIYADGRRTFYGDSVK | GKAAGTFDT | 0.25 / -0.10 / 0.20 / -0.21 / -0.15 / -0.19 | -0.03 |
| GFTLNMYGIS | VIYSDGRRCFYGDSTK | GRAAGTFDS | n.d. / 1.78 / n.d. / n.d. / n.d. / n.d. | 1.78 |
| GFTLNSYGIS | VIYSDGRRTFYTDSVK | GRAADHFDS | n.d. / n.d. / n.d. / n.d. / n.d. / n.d. | n.d. |
| GFTLNSYGIS | VIYSDGRRTFYIDSVK | GRTAGTFDS | 1.13 / 1.29 / 1.54 / 1.60 / 1.66 / 1.83 | 1.51 |
| GFTLNSYGIS | VIYSDGSRTAYGDSVK | GREAGTFPS | n.d. / n.d. / n.d. / n.d. / n.d. / 2.41 | 2.41 |
| GFNLNEYGIS | VIYADGMRTFYTDSVK | GETAGTFIV | n.d. / 2.77 / 2.97 / n.d. / 3.92 / 2.58 | 3.06 |
| GFQLNSYGIS | VIYSDGRRTFYSDSVK | GQAAGTFDL | 1.00 / 1.17 / 1.52 / 2.23 / 0.67 / 1.65 | 1.37 |
| GFDLNEYGIS | VIYADGQRTFYADSVK | GEVAGTFDL | 0.01 / -0.58 / -0.27 / -0.44 / -0.32 / 0.03 | -0.26 |
| GFDLNEYGIS | VIYADGRRTAYVDSVK | GQNAGTFDV | -0.27 / -0.46 / -0.51 / -0.61 / -0.64 / -0.78 | -0.54 |
| GFTLNSYGIS | VIYSDGRRTFYGDSVK | GRAALTFDL | n.d. / n.d. / n.d. / n.d. / n.d. / n.d. | n.d. |
| GFELNEYGIS | VIYSDGRRTFYGDSVK | GQTAGTFDT | -0.51 / -0.38 / -0.10 / -0.86 / -0.77 / -0.59 | -0.54 |
| GFHLNEYGIS | VIYSDGRRTAYKDSVK | GNAAGTFDS | 0.87 / 0.63 / 0.65 / 0.84 / 1.01 / 0.86 | 0.81 |
| GFTLNSYGIS | VIYSDGRRTFYGDSVK | GRTAGTFEV | n.d. / n.d. / n.d. / n.d. / n.d. / n.d. | n.d. |
| GFTLNRYGIS | VIYSDGRRTQEDDSVK | GRAAGTFDS | n.d. / n.d. / n.d. / n.d. / n.d. / n.d. | n.d. |
| GFNLNEYGIS | VIYADGRRSFYSDSVK | GENAGTFDV | -0.03 / -0.26 / -0.22 / -0.13 / -0.34 / -0.07 | -0.17 |
| GFGLNSYGIS | VIYSDGRRTFYIDSVK | GQEAGTFDS | 1.22 / 0.89 / 1.47 / 0.19 / 0.44 / 1.67 | 0.98 |

Extract of 4 entries:

CDR-H1	CDR-H2	CDR-H3	replicates, log10 nM	mean log10 Kd (nM)
GFELNEYGIS	VIYSDGRRTFYEDDVK	GRTAGTFDS	0.79 / 0.57 / 0.20 / 0.29 / 0.49 / 0.78	0.52
GFVLDEYGIS	VIYADGMRTVYAEDFK	GQTAGNFHH	n.d. / n.d. / n.d. / n.d. / n.d. / n.d.	n.d.
GFTLNSYGIS	VIYSDGRRTFYIDSVK	GRTAGTFDS	1.13 / 1.29 / 1.54 / 1.60 / 1.66 / 1.83	1.51
GFDLNEYGIS	VIYADGQRTFYADSVK	GEVAGTFDL	0.01 / -0.58 / -0.27 / -0.44 / -0.32 / 0.03	-0.26